This passage reports Ki results from ChEMBL document CHEMBL1131589, “Derivation of a pharmacophore model for anandamide using constrained conformational searching and comparative molecular field analysis” (J Med Chem, 1998).

The chains behind the UniProt entries cited, without tags or fusion partners.
UniProt P20272, whole entry: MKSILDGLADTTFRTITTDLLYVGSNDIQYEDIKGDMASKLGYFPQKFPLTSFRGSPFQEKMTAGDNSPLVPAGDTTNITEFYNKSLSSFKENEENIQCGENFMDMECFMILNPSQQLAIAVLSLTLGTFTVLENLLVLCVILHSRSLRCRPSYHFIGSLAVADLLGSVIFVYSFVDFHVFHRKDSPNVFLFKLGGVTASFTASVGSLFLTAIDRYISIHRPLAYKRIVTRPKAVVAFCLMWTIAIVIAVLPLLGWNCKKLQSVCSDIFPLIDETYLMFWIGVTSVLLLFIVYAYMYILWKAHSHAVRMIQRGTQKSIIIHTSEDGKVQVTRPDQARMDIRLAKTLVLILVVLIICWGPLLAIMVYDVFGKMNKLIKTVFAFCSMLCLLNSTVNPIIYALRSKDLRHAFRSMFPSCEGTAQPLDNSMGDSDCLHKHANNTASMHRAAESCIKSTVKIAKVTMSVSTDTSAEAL

Molecules are shown by their SMILES.

For this assay, the target named is Cannabinoid receptor 1 (Rattus norvegicus, UniProt P20272). The experiment in a line: Displacement of [3H]CP-55940 binding to Cannabinoid receptor 1 in rat brain membranes. It is filed as cell membranes.

`CCCCC/C=C\C/C=C\C/C=C\C/C=C\CCCC(=O)NCCO` [ANANDAMIDE]: affinity was put at a Ki of 22 nM.
